Laboratory results taken from patent US9480726B2, “Leukotoxin E/D as a new anti-inflammatory agent and microbicide” (New York University, priority 2011, dated 2016).

Key:
[1] = test system: primary human macrophages; assay: LukE/D cytotoxicity towards primary phagocytes, percent death by flow cytometry; conditions: LukE/D vs. LukE/D+MVC
Method: (§1) Cells were then stained with an anti-CCR5 antibody and a viability dye prior analysis by flow cytometry.
(§2) In addition to T lymphocytes, the cytotoxic activity of LukE/D towards primary human macrophages and dendritic cells was also evaluated.

[2] = test system: primary human dendritic cells; assay: as above; conditions: LukE/D vs. LukE/D+MVC
Method: as §1, §2

CCR5^+ Jurkat cells = assay: Blocking of LukE/D cytotoxicity by CCR5 antagonists, antibodies and ligands, CellTiter; conditions: CCR5^+ Jurkat preincubated 30 minutes, then LukE/D, read 1 hour post-intoxication
[3] = test system: Primary human T lymphocytes from CCR5^+ donor; assay: LukE/D intoxication of primary T lymphocytes, viability by flow cytometry; conditions: LukE/D vs. LukE/D+MVC
Excerpt: as §1
If CCR5 is the receptor of LukE/D, then primary host cells that their surfaces are decorated with CCR5 (e.g., T lymphocytes, macrophages, natural killer cells, dendritic cells, etc.) will be susceptible to LukE/D mediated cell death. To investigate this in more detail, primary human peripheral blood mononuclear cells (PBMC) were isolated from a wild type CCR5 (CCR5^+) donor and a Δ32CCR5 (CCR5^−) donor and the T lymphocytes expanded followed by intoxication with LukE/D and the viability of the cells determined by flow cytometry.

Maraviroc [reference compound]
neutralization of LukE/D cytotoxic effect [1]: potently neutralized | neutralization of LukE/D cytotoxic effect [2]: potently neutralized | blocking of LukE/D mediated cytotoxicity (CCR5^+ Jurkat cells): potently blocked | neutralization of LukE/D cytotoxicity [3]: potently neutralized
